Ab-14 light chain CDR variants: yeast mating affinities

Target: peptide PDVDLGDISGINAS, taken from heptad repeat 2 (HR2) of SARS-CoV-2 spike.

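Variants in AAYL50 differ from the parent at up to three CDR positions; double and triple changes were sampled at random. In AlphaSeq, yeast of one mating type display the scFv and yeast of the other type display the target. Mating (16 h, 30 °C) was followed by selection of diploids and sequencing of their barcodes. Read counts were normalised to the haploid input and turned into Kd by a linear fit to BCL2-family pairs of known affinity, for each replicate. There are three technical replicates.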

Ab-14 is the parent antibody, in scFv form: VH, then three GGGGS repeats, then VL. The heavy chain is unchanged in all variants.
VH: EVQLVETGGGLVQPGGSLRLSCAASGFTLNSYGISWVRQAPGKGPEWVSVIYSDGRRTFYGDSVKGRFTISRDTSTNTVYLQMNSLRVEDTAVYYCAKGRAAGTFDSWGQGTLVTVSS
VL: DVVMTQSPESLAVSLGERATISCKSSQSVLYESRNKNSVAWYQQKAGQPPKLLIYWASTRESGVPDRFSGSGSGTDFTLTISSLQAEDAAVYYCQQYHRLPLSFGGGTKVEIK

Variants are written as CDR1, CDR2 and CDR3 of the light chain (limits as in the source). Parent: KSSQSVLYESRNKNSVA, WASTRES, QQYHRLPLS.
The read-out is the apparent dissociation constant on a log10 scale (nM): the lower, the stronger.
"nd" means that the variant was in the library but no mating with the target was seen in that replicate; the authors take this as a sign of poor binding, and no number exists.
For reference, the parent read 0.65 as the reference entry and 1.68 as a member of this library.
Nonspecific signal, from three strains lacking the peptide, appeared in 18% of pairings of library AAYL50, centred on 4.19 (5% of these signals below 2.99); values are not corrected for it.

Read-out 4.73, nd, nd, from KSFQSVLYESRNKNLVA / WASTRES / QQYHRLPLS.
Read-out 2.36, 2.16, 2.14, from KSSQSVLYESRNKQSVA / WAVTRES / QQYHRLPSS.
Read-out nd, nd, nd, from KSQQSVLYESRNKNSVK / WASTRES / QQYHRLPLS.
Read-out 2.04, 2.92, nd, from KSSQSVHYESRNKNGVA / WASTRES / QQYHRLPLS.
Read-out 1.47, 2.09, 1.23, from KSSQSVPRESRNKNSVA / WASTRES / QQYHHLPLS.
Read-out nd, nd, nd, from KSWQSVLYECRKKNSVA / WASTRES / QQYHRLPLS.
Read-out 5.89, nd, nd, from KASQSVLYESRNKNCVA / WASTHES / QQYHRLPLS.
Read-out nd, nd, nd, from KSSQSVLYESRNKNMHA / WASTRES / QQYHSLPLS.
Read-out nd, nd, nd, from KSSQSVLYESRNKNSVV / WNSTRES / QQYHRLPLN.
Read-out 0.69, 1.07, 0.89, from KSNQSVAYESKNKNSVA / WASTRES / QQYHRLPLS.
Read-out 1.52, 1.82, 1.80, from KSSQSELYESRPKNSVA / WASTRES / QQIHRLPLS.
Read-out nd, nd, nd, from KSSQSVLYKSRYKNSVA / WASTRES / QQYHRLPQS.
Read-out 4.44, 4.32, nd, from PSSQSVLYESRNKMSVA / WACTRES / QQYHRLPLS.
Read-out nd, 4.25, nd, from KSSQSMLYESRNKNSVY / WASTRES / QQYHRLPAS.
Read-out nd, nd, nd, from KSSQSLLYESRNKNSVA / WASTRKS / QQYHRDPLS.
Read-out nd, nd, nd, from KSSQSVLYSSRNKNSQA / WASCRES / QQYHRLPLS.
Read-out nd, 3.45, 5.43, from KSSQSVLYESRNKNSVA / WASTRES / QFYHRLNCS.
Read-out nd, nd, nd, from KSSFSVLYESREKNSVA / WASTRES / QQYHRLPLS.
Read-out 3.36, nd, nd, from GSWQSVLYESRNKNSHA / WASTRES / QQYHRLPLS.
Read-out 1.19, 0.95, 1.55, from KSSQSSLYESRHKNSVA / WASVRES / QQYHRLPLS.
Read-out 0.52, 0.93, 0.46, from KSSQSTLYESHNKNSVA / WASTRES / QQYHRLPLS.
Read-out nd, 4.11, nd, from GSSQSVLYESRNKNSVC / IASTRES / QQYHRLPLS.
Read-out nd, nd, nd, from KTSQSVLYESRNKESVA / WASTRES / MQYHRLPLS.
Read-out 0.48, 0.59, 0.56, from KSSQGVPYESRNKNSVA / WASTRES / QQYHRLPLS.
Read-out 5.22, nd, nd, from KSSQSVSYESRNKNSAA / WASTRES / QQYHNLPLS.
Read-out 1.90, 2.86, 2.17, from KHSQSVLYESRNKNSVA / WASTRES / QQYHGLGLS.
Read-out 2.38, 1.83, 2.10, from KSSQSVLRESRNKNSVA / WASTRES / KQYHRLPLR.
Read-out 0.62, 0.90, 0.94, from KSVQSVLYESRNMNSVA / WASTRED / QQYHRLPLS.
Read-out nd, 4.18, nd, from KSSQSVLYESRNKNSVA / WASRRES / WQYVRLPLS.
Read-out nd, nd, nd, from KSWQSVLYESRNKLSVA / WASTRES / NQYHRLPLS.
Read-out 2.53, 2.41, 2.24, from VSSQYVLYESRNKNSVA / WASTRED / QQYHRLPLS.
Read-out nd, nd, nd, from KSSQYVLYESRNKDSVA / WASTRES / QQDHRLPLS.
Read-out 1.92, 1.82, 1.96, from KSSSSVLYESRDKNSVA / WASTRES / QQTHRLPLS.
Read-out 4.38, 3.69, nd, from KSSQSVLYESRNKNSVA / WASWRES / QQYHRHPLS.
Read-out 1.84, 1.69, 1.94, from KSSQQVLYESRNKNSVA / WASTRHS / QQYHLLPLS.
Read-out nd, nd, 3.56, from KSSQSVLYESRNKNAFA / WASCRES / QQYHRLPLS.
Read-out nd, nd, nd, from KLSQSVLYESRNKNSIF / WASTRES / QQYHRLPLS.
Read-out 4.39, nd, nd, from ASSQSVLYESRNKNSVA / WASTRPS / QQYHRGPLS.
Read-out 5.89, 3.92, 4.47, from SSSQSVLYESRNKNSVA / CASTREH / QQYHRLPLS.
Read-out 0.57, 0.75, 0.82, from KHSQSSLYESRNKNSVA / WASTRES / QQYHRLPLS.
Read-out -0.25, 0.16, -0.34, from KSSQSCLYESRNKNSVA / HASTRCS / QQYHRLPLS.
Read-out nd, nd, nd, from KSSQSVGYESRNKNCVA / WASTRES / HQYHRLPLS.
Read-out 2.99, nd, nd, from KSSQSVLYESRNKNDVA / WASTREN / QFYHRLPLS.
Read-out 0.30, 0.30, 0.36, from KSSLSVLYESLNKNSVA / WASTRES / QQYHRLPLS.
Read-out 1.32, 1.43, 1.39, from KTSCSVLYESRNKNSVA / MASTRES / QQYHRLPLS.
Read-out nd, nd, nd, from KSSQSRLYESRNKNSVA / WASTRES / QQYHRLPLD.
Read-out nd, nd, nd, from KSSQSVLLRSRAKNSVA / WASTRES / QQYHRLPLS.
Read-out nd, 2.52, 4.97, from KSSQSVLYESHNKNSVA / WTSTRKS / QQYHRLPLS.
Read-out 4.18, nd, nd, from KSSQSVLYKSRNKNSVS / WASMRES / QQYHRLPLS.
Read-out 2.97, 3.36, 2.69, from CSSQSVLYESRNKNSVA / FASTRES / QQYHRLPAS.
Read-out nd, 4.59, nd, from KSSNSVLYESRNKNSEA / WASTRFS / QQYHRLPLS.
Read-out nd, nd, 3.98, from KSLQSVLYETRNKNSVA / WASTRES / QRYHRLPLS.

The first 7 variants above that were never detected:

{"CDR-L1": "KSQQSVLYESRNKNSVK", "CDR-L2": "WASTRES", "CDR-L3": "QQYHRLPLS", "log10 Kd, replicates": "nd, nd, nd"}
{"CDR-L1": "KSWQSVLYECRKKNSVA", "CDR-L2": "WASTRES", "CDR-L3": "QQYHRLPLS", "log10 Kd, replicates": "nd, nd, nd"}
{"CDR-L1": "KSSQSVLYESRNKNMHA", "CDR-L2": "WASTRES", "CDR-L3": "QQYHSLPLS", "log10 Kd, replicates": "nd, nd, nd"}
{"CDR-L1": "KSSQSVLYESRNKNSVV", "CDR-L2": "WNSTRES", "CDR-L3": "QQYHRLPLN", "log10 Kd, replicates": "nd, nd, nd"}
{"CDR-L1": "KSSQSVLYKSRYKNSVA", "CDR-L2": "WASTRES", "CDR-L3": "QQYHRLPQS", "log10 Kd, replicates": "nd, nd, nd"}
{"CDR-L1": "KSSQSLLYESRNKNSVA", "CDR-L2": "WASTRKS", "CDR-L3": "QQYHRDPLS", "log10 Kd, replicates": "nd, nd, nd"}
{"CDR-L1": "KSSQSVLYSSRNKNSQA", "CDR-L2": "WASCRES", "CDR-L3": "QQYHRLPLS", "log10 Kd, replicates": "nd, nd, nd"}

Reference: Engelhart et al. 2022, doi:10.1038/s41597-022-01779-4. File: FLAb, binding data.